## AlphaSeq binding of Ab-14 heavy chain variants to a spike HR2 peptide

Antigen: PDVDLGDISGINAS, a 14-residue peptide of the SARS-CoV-2 spike HR2 region.

Each scFv is VH, three GGGGS repeats, VL, as in the parent Ab-14, and differs from it in the CDRs of the heavy chain only.
VH: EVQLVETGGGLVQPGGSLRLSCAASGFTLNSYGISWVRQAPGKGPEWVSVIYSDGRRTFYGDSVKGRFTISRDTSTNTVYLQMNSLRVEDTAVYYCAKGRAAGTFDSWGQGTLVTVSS
VL: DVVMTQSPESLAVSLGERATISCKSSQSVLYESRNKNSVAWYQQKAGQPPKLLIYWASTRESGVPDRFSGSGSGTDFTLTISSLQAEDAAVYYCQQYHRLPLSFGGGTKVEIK

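Variants in AAYL49 differ from the parent at up to three CDR positions; double and triple changes were sampled at random. In AlphaSeq, yeast of one mating type display the scFv and yeast of the other type display the target. Pairs that bind mate more often; barcode pairs of the diploids are counted by sequencing. A regression on co-assayed BCL2-family reference pairs converts the normalised counts of each replicate to an apparent Kd. Mating was done three times.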

Variants are written as CDR1, CDR2 and CDR3 of the heavy chain (limits as in the source). Parent: GFTLNSYGIS, VIYSDGRRTFYGDSVK, GRAAGTFDS.
Values are log10 of the apparent Kd in nM; lower means stronger binding.
The mean shown is taken over the replicates in which the pair was detected.
"nd" means that the variant was in the library but no mating with the target was seen in any replicate; the authors take this as a sign of poor binding, and no number exists.
Empty control strains, which show no peptide, gave a signal in 15% of pairings with library AAYL49; the median was 4.06 and 95% of these signals were weaker than 2.83. No background was subtracted.
Parent in this assay: reference entry 0.65, copy in this library 4.11 (one replicate of three).

For GFTLNPYGIS / VIYSDGRRTFYGDSVH / GRAAGTTDS, the assay gave 3.23 (2 of 3 replicates).
For GFTLNSYHIS / VIYSDGRRTFYGLSVK / GRAAGFFDS, the assay gave 4.27 (2 of 3 replicates).
For GFTLNSYGIS / VIYSDGRITFYGDSWK / GTAAGTFDS, the assay gave nd (0 of 3 replicates).
For GFTLNSYGIS / VIYSDGRRTFYGDSVP / GRAVGTFDW, the assay gave nd (0 of 3 replicates).
For GFTLNSYMIS / VFYSDGRRTFYFDSVK / GRAAGTFDS, the assay gave nd (0 of 3 replicates).
For GFTMNSYFIS / VIYSDGRRTFYGDSVK / GRATGTFDS, the assay gave 4.61 (2 of 3 replicates).
For GFTLNSYGIN / VIYSDGRRTFYGDSVD / GWAAGTFDS, the assay gave nd (0 of 3 replicates).
For GFTLNSYGIS / VIYSDGRRTFYGDSVK / GKAPGTFDV, the assay gave 1.77 (3 of 3 replicates).
For GFTLNSYGIS / VIYSDGRRTFYGDSVK / PRAAGTVCS, the assay gave nd (0 of 3 replicates).
For GFTLMSYGIS / VIYSDGRRTFYGDSVK / GRAAHTHDS, the assay gave 2.48 (3 of 3 replicates).
For GPTLNSYGIR / VIYSDGRRTFYGDSVK / GRIAGTFDS, the assay gave 4.57 (1 of 3 replicates).
For GFTLNSYGIS / LIYSDGDRTFYGDSVK / GRAAGTFDF, the assay gave nd (0 of 3 replicates).
For GFTINSYGIS / VIYSDGRRTFKGDSVK / DRAAGTFDS, the assay gave nd (0 of 3 replicates).
For GFTLNSYGIS / VYYQDGRRTFYGDSVK / VRAAGTFDS, the assay gave 3.85 (2 of 3 replicates).
For GFTLNSYGIS / VIYSDGRRTFYGDSVK / GRARQTFHS, the assay gave nd (0 of 3 replicates).
For GFTLNSETIS / VIYSDGRRTFYGDSYK / GRAAGTFDS, the assay gave nd (0 of 3 replicates).
For FFTLNSYGIS / VIYSDGRRSKYGDSVK / GRAAGTFDS, the assay gave 4.83 (3 of 3 replicates).
For GFTLNSHGIS / VIYSDGDRTFYGDSVK / GRAAGTFDM, the assay gave 3.14 (1 of 3 replicates).
For GFTLNIYGIS / VIYSDGARTFYGDSVK / GQAAGTFDS, the assay gave 1.46 (1 of 3 replicates).
For GFTLQSYGIS / EIYSDGRETFYGDSVK / GRAAGTFDS, the assay gave nd (0 of 3 replicates).
For GFTLNSYGIS / VIYIDGRRTFYGDSVK / GRAAGTFAS, the assay gave 5.33 (2 of 3 replicates).
For GFTLNSYDIS / VIGSDGRRTFYGDAVK / GRAAGTFDS, the assay gave nd (0 of 3 replicates).
For GFTLNSKGIS / VIYSDGRRTFIGDSVK / GRAAGTFMS, the assay gave 2.44 (1 of 3 replicates).
For PFTLNSYGLS / VIKSDGRRTFYGDSVK / GRAAGTFDS, the assay gave nd (0 of 3 replicates).
For GFTLNSRGIS / VIYSDGNRTFYGDSVK / GRAAGFFDS, the assay gave nd (0 of 3 replicates).

The remaining entries, values ahead:

nd (0 of 3 replicates) for GFTLNSYEIS / VIYCCGRRTFYGDSVK / GRAAGTFDS.
nd (0 of 3 replicates) for GFTLNSCGIS / VIYSDGRRTFYGDPVK / GRAAGQFDS.
nd (0 of 3 replicates) for GNTGNSYGIS / VIYSDGRRTFYGDSVK / GRAKGTFDS.
1.36 (3 of 3 replicates) for GFTLNSYGIS / VIYSDGRRTFYGDSVK / GRAAGTCPS.
nd (0 of 3 replicates) for GFTLNSYGIS / VIYSVGRRTFYGDMVK / TRAAGTFDS.
2.69 (1 of 3 replicates) for GFTLNSYGIS / VFYSDGRRTFYGDSVK / QRAAGTFDS.
nd (0 of 3 replicates) for GFTLNSYGKS / VIYSDGRRTFYGDSVK / GRIAGTFDF.
3.41 (2 of 3 replicates) for GFTLNSLGIS / VIYVYGRRTFYGDSVK / GRAAGTFDS.
2.65 (3 of 3 replicates) for GFTLNSYGIS / VIYSDGIRTFYGMSVK / GRWAGTFDS.
5.23 (1 of 3 replicates) for GFTLNSYGIS / VIIFDGRRTVYGDSVK / GRAAGTFDS.
3.43 (2 of 3 replicates) for GFTLNSYGIS / VIYSDGRRPFYGDSVK / GRAAGTFGS.
4.20 (2 of 3 replicates) for GFTLNSYGIS / VNYLDGRRTFYGDSVK / GRAVGTFDS.
3.43 (1 of 3 replicates) for GFTLNSYGES / VIYSDGRRTFYGDSTK / GRAHGTFDS.
3.78 (1 of 3 replicates) for GATLNSYGIS / VIYSDGRDTFYGDSVK / GRAAGPFDS.
3.54 (2 of 3 replicates) for GFTLNSYGIS / VIYEDGRRTCYGDSVK / GRAAGPFDS.
nd (0 of 3 replicates) for GFFLNSMGIS / VIYSDGRRTFYGDSVK / GRAAGTFSS.
nd (0 of 3 replicates) for GNTKNSYGIS / VIYSDGRRTFHGDSVK / GRAAGTFDS.
nd (0 of 3 replicates) for GFTLNSPGPS / VIYSDGRRTFYDDSVK / GRAAGTFDS.
3.13 (3 of 3 replicates) for GMTLNSHGIS / VIYSDGRRTFYGDSVK / GRAAGTFDS.
nd (0 of 3 replicates) for GFTLNSYGIS / VIYADGRRTFYGDSVK / GRAAGTEDS.
3.76 (1 of 3 replicates) for GFTLNSYGIP / VIFSDGRRTRYGDSVK / GRAAGTFDS.
3.26 (3 of 3 replicates) for GETLASYGIS / VIYSDGRRTFYGDVVK / GRAAGTFDS.
3.93 (1 of 3 replicates) for GFTLNSYGIS / VIDSDGRRTFYGDSVK / GRAAGTFDC.
4.31 (1 of 3 replicates) for GFTLNSYGIS / VIYSDGRMTFYGDSRK / GRAAGTFDC.
nd (0 of 3 replicates) for GFTLNSYGGS / VIYSDGWRCFYGDSVK / GRAAGTFDS.
nd (0 of 3 replicates) for GFTLNSYGIS / VWYSDGRRVFYGDSVK / GRAAGTFWS.

Values reported by Engelhart et al. 2022, doi:10.1038/s41597-022-01779-4 (FLAb copy).